{"source": "ChEMBL document CHEMBL4842326", "target": "T1, Histone deacetylase 8 (Homo sapiens, UniProt Q9BY41)", "T1 sequence (Q9BY41 whole entry)": "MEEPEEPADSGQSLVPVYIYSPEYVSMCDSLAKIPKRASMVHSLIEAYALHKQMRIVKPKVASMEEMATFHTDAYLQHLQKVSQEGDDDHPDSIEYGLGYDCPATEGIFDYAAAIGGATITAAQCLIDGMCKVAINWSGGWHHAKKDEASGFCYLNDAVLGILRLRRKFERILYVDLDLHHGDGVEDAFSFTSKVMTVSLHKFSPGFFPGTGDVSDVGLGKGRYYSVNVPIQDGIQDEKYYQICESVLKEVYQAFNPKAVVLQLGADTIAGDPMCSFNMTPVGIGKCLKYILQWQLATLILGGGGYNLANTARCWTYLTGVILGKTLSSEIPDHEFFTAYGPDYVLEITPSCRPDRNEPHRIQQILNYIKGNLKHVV", "assay": "Inhibition of HDAC8 (unknown origin) using Ac-LeuGlyLys(tfa)-AMC as substrate preincubated for 10 mins followed by substrate addition and further incubated for incubated for 1 hrs by fluorescence microtiter plate reader assay"}
{"smiles": "O=C(CCCCCCC(=O)Nc1ccccc1)NO", "note": "[VORINOSTAT]", "values": [{"measurement": "IC50", "value": 1.28, "unit": "µM"}]}
